Apparent affinities of Ab-14 variants for a coronavirus HR2 peptide

Source: Li et al. 2023 (doi:10.1038/s41467-023-39022-2), MIT Lincoln Laboratory and A-Alpha Bio; data file from the FLAb repository.

All variants were tested on one target, the spike HR2 peptide PDVDLGDISGINAS (SARS-CoV-2).

Parent scFv Ab-14: VH joined to VL by a 15-residue (Gly4Ser)3 linker. Changes lie in the heavy chain CDRs alone.
VH: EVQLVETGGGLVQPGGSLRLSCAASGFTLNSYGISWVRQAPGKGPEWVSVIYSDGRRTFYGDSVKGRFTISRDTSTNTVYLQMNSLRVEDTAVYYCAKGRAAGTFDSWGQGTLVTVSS
VL: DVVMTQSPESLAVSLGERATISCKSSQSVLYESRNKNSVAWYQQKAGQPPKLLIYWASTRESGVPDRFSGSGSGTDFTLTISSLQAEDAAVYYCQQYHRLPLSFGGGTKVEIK

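The starting antibody came from a phage panning campaign against this peptide. The variants were designed computationally from a first round of random CDR variants and then made and measured. Several design methods are mixed in this list. In AlphaSeq, yeast of one mating type display the scFv and yeast of the other type display the target. After mating in shaken culture at 30 °C for 16 h, diploids were selected and their barcode pairs sequenced. A regression on co-assayed BCL2-family reference pairs converts the normalised counts of each replicate to an apparent Kd. The assay was run in six technical replicates.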

Changes read parent residue, position, new residue, counted from the first residue of the VH shown. Variants here have at most six changes. Values are apparent Kd, the geometric mean of the replicates that gave a signal; lower means stronger binding. "nd" marks a missing value. The strain was present, yet no cells mated with the target were sequenced in any replicate, which points to weak or no binding. In the paper, a design with two or fewer of six values counts as a poor binder. A sequence measured in both rounds can read differently, since the two assays cover different ranges. The parent sequence was in this pool as ten entries: three were never detected, three once, and four in most replicates, with averages from 2.2 nM to 240 nM. Three control strains display no target. For all heavy chain designs, 1% of the pairings with them gave a signal, with a median of 120 nM and one signal in twenty below 7.0 nM, so weak values seen in few replicates may be background. For each scFv, signals with the empty controls are counted beside the result. A sequence that the file lists under several names has all its replicates pooled.

The variant T28D R56I R100Y showed 5.7 nM (6 of 6 replicates; controls 1 of 18).
The variant T28Q S31E R100Q S107Q showed 2.5 nM (6 of 6 replicates; controls 0 of 18).
The variant N30M R56I G61Q showed 540 nM (1 of 6 replicates; controls 0 of 18).
The variant T28E S53A R100K S107F showed 1.3 nM (6 of 6 replicates; controls 1 of 18).
The variant T28H G61K R100E showed 210 nM (5 of 6 replicates; controls 0 of 18).
The variant T28E S31Q A101T showed 1.1 nM (6 of 6 replicates; controls 0 of 18).
The variant T28D G61S S63Q A101T showed 650 pM (6 of 6 replicates; controls 0 of 18).
The variant S31E A101Q D106I showed nd (0 of 6 replicates; controls 0 of 18).
The variant T28E S53A R100E S107V showed 2.7 nM (6 of 6 replicates; controls 0 of 18).
The variant T28S S31D A101I showed 1.7 nM (6 of 6 replicates; controls 1 of 18).
The variant T28N R100K A101I showed 12 nM (6 of 6 replicates; controls 0 of 18).
The variant T28D G61H R100E showed 3.3 nM (6 of 6 replicates; controls 1 of 18).
The variant T28D I51Y T104W D106N showed nd (0 of 6 replicates; controls 0 of 18).
The variant T28Q S31E G61T R100Q S107L showed 1.6 nM (6 of 6 replicates; controls 0 of 18).
The variant R56L G61Q D62P showed 28 nM (1 of 6 replicates; controls 0 of 18).
The variant G61S A102G T104V showed nd (0 of 6 replicates; controls 1 of 18).
The variant S31E R56I A101T showed 1.4 nM (6 of 6 replicates; controls 0 of 18).
The variant S53A R100E S107F showed 810 pM (6 of 6 replicates; controls 0 of 18).
The variant T28E G61T A101M showed 5.2 nM (6 of 6 replicates; controls 0 of 18).
The variant S31E G61I A101H showed 20 nM (6 of 6 replicates; controls 0 of 18).
The variant S31E G61S T104H D106M showed nd (0 of 6 replicates; controls 0 of 18).
The variant G26Y S31E G61R A101T showed nd (0 of 6 replicates; controls 0 of 18).
The variant T28A S31D I51M showed 18 nM (6 of 6 replicates; controls 0 of 18).
The variant T28E S31E G61K A101T showed 1.3 nM (6 of 6 replicates; controls 0 of 18).
The variant S53A R100T showed 640 pM (6 of 6 replicates; controls 0 of 18).
The variant R56Q G61S S63D A101E S107T showed 620 pM (6 of 6 replicates; controls 0 of 18).
The variant S31D G33P F59Q G61I A101T showed 140 nM (1 of 6 replicates; controls 0 of 18).
The variant T28D Y52W R56Y G103D T104W D106N showed nd (0 of 6 replicates; controls 1 of 18).
The variant T28Q S31D A101T D106I showed nd (0 of 6 replicates; controls 0 of 18).
The variant T28S G61T R100K A101V showed 47 pM (2 of 6 replicates; controls 0 of 18).
The variant R56L D106I showed nd (0 of 6 replicates; controls 0 of 18).
The variant S31D S53A showed 700 pM (12 of 12 replicates; controls 1 of 36).
The variant T28S G61K R100S A101T showed 4.3 nM (6 of 6 replicates; controls 0 of 18).
The variant S31E G61I D106I showed nd (0 of 6 replicates; controls 0 of 18).
The variant T28Q L29I K65A showed 3.0 nM (6 of 6 replicates; controls 0 of 18).
The variant S31E G103K D106K S107Q showed nd (0 of 6 replicates; controls 0 of 18).
The variant T28F G61N R100D showed nd (0 of 6 replicates; controls 0 of 18).
The variant F59Q D106H showed nd (0 of 6 replicates; controls 0 of 18).

Excerpt, the first 2 entries:

| changes | Kd | seen in | signal with controls |
|---|---|---|---|
| T28D R56I R100Y | 5.7 nM | 6 of 6 | 1 of 18 |
| T28Q S31E R100Q S107Q | 2.5 nM | 6 of 6 | 0 of 18 |